Only a part is listed here, and it is no random draw. Potency and affinity values are given separately. Activity calls are given as the source filed them. The rule behind the calls is not given here.
Biological target: Heat shock cognate 71 kDa protein (Homo sapiens) (UniProt P11142)
Test: small molecules displacing fluorescent ligand from Hsc70 – biochemical, fluorescence polarization, primary screen (AID 568)
Settings: mP, at 20 µM, active compounds read high

Sequences of proteins named here, by UniProt entry; tags and fusion partners are left off.
UniProt P11142, whole entry: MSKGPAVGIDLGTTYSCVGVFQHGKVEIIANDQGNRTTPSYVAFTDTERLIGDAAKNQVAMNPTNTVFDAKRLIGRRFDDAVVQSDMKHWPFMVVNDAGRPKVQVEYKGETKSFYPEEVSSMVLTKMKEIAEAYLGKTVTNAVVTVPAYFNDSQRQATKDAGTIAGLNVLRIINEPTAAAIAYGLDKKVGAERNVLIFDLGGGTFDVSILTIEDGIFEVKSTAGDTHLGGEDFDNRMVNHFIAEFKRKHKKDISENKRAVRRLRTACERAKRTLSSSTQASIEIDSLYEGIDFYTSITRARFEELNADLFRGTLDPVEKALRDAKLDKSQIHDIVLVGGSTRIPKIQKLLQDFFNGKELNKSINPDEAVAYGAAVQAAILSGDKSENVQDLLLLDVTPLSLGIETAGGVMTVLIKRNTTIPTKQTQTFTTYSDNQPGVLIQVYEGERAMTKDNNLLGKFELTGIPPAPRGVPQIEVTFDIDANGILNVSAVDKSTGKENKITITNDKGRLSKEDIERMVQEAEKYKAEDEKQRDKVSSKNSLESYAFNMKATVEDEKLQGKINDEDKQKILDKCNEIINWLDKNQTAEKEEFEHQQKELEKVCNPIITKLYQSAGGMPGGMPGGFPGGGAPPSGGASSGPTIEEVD

Compound | displacement
N/C(=N\O)c1c(N)no[n+]1[O-] | inactive: -0.7%
c1ccc(CN2CCC(Nc3ccccc3)CC2)cc1 | inactive: -3.5%
Fc1ccccc1NC1CCN(Cc2ccccc2)CC1 | inactive: 0.8%
CCC(CO)(C(=O)OC1CN2CCC1CC2)c1ccccc1 (stereo not given) | inactive: -0.7%
CCOc1ncccc1C(=O)NCC1(N2CCOCC2)CCCCC1 | inactive: -7.9%
O=C(NCC1(N2CCOCC2)CCCCC1)c1cc2ccccc2o1 | inactive: 5.5%
O=C(OC1CN2CCC1CC2)C1c2ccccc2Oc2ccccc21 (stereo not given) | inactive: -4.6%
COc1ccc(NC2CCN(CCc3ccccc3)CC2)c(OC)c1 | inactive: -4.7%
O=C(NCC1(N2CCOCC2)CCCCC1)c1cc(=O)[nH]c2ccccc12 | inactive: 1.6%
N#CC1(Nc2ccccc2)CCN(CCc2ccccc2)CC1 | inactive: 2.3%

Reference: PubChem BioAssay AID568 (Sanford-Burnham Center for Chemical Genomics, 2006)
